Patent publication US20080213813A1, “Histone deacetylase inhibitor and use thereof” (priority 2002, published 2008)

Molecular target: T1, HDAC6 (Homo sapiens, UniProt Q9UBN7)
T1 sequence (Q9UBN7 1-1215): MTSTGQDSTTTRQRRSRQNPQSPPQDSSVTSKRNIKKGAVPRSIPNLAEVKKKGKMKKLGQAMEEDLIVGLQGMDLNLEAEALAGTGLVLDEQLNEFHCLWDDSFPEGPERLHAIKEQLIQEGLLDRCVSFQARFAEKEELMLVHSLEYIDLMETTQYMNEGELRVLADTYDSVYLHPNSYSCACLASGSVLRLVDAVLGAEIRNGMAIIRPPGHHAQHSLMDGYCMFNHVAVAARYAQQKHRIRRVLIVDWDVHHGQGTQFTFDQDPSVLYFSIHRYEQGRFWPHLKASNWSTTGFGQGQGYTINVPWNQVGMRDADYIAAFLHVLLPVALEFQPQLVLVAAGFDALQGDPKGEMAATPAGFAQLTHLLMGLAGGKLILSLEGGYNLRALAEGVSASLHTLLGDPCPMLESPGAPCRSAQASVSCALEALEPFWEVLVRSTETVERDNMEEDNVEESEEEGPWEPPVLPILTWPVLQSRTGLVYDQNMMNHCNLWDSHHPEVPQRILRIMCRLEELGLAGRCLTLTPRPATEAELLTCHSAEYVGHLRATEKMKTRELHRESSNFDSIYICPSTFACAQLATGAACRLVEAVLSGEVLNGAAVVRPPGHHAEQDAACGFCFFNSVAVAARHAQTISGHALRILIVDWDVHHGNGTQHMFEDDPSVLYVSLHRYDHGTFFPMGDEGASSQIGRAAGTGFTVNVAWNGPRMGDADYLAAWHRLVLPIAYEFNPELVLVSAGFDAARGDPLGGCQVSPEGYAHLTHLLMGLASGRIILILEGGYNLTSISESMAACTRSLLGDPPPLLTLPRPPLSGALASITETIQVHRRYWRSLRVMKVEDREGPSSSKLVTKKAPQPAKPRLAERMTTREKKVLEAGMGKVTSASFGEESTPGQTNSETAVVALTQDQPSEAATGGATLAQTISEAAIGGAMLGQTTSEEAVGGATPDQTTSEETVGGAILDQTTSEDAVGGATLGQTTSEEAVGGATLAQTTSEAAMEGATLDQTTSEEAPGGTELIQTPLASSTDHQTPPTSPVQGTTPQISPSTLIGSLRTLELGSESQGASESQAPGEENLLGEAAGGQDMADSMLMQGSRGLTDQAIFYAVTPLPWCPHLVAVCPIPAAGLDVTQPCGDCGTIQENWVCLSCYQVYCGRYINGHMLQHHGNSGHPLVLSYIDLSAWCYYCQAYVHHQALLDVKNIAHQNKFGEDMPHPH
Experiment: Deacetylating activity of recombinant HDAC6 (HDAC Fluorescent Activity Assay/Drug Discovery Kit)
Conditions: 1 μM Trichostatin A in assay; recombinant His6-HDAC6; FIG. 1

SMILES: CC(/C=C/C(=O)NO)=C\[C@@H](C)C(=O)c1ccc(N(C)C)cc1 [Trichostatin A]
- deacetylating activity of the HDAC6 protein: completely inhibited
